Source: patent publication US10034861B2 (priority 2016, dated 2018)

By UniProt entry, the sequences of proteins in these tests, tags left out. Where a name states a change or a piece, a line headed by the entry shows the natural chain unless it says otherwise.
UniProt Q14123, whole entry: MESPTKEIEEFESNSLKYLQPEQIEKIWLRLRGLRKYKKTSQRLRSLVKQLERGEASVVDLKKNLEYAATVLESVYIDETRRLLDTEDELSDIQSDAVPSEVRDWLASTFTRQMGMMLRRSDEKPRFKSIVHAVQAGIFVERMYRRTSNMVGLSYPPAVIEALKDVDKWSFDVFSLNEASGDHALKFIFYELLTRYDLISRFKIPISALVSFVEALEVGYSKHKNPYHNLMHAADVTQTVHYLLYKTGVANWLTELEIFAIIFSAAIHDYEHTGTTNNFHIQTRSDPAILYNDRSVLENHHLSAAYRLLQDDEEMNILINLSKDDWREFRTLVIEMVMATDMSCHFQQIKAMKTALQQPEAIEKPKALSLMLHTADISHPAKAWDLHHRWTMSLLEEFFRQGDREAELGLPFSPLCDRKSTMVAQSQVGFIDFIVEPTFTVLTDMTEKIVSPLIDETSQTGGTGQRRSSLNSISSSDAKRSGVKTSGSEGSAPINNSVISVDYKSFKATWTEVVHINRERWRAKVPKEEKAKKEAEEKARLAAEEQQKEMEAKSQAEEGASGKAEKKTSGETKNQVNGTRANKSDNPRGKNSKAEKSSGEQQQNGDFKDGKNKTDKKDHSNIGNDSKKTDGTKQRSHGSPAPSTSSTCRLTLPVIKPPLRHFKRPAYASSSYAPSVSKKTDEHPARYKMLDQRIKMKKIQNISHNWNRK
UniProt P54750: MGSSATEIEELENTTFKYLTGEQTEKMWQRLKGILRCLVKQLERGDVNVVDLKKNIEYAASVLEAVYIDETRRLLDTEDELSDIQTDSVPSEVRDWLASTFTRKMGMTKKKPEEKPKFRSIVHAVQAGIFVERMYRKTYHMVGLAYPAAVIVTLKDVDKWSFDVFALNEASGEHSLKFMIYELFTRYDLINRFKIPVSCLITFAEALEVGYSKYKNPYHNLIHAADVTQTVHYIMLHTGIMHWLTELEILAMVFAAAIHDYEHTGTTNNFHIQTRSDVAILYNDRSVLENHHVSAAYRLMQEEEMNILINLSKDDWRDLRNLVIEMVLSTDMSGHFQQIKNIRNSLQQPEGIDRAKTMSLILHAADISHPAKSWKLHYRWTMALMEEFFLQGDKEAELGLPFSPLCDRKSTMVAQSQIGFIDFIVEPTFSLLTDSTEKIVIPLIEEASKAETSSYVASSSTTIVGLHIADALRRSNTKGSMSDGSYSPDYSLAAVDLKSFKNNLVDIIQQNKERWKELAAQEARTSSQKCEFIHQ
UniProt Q01064: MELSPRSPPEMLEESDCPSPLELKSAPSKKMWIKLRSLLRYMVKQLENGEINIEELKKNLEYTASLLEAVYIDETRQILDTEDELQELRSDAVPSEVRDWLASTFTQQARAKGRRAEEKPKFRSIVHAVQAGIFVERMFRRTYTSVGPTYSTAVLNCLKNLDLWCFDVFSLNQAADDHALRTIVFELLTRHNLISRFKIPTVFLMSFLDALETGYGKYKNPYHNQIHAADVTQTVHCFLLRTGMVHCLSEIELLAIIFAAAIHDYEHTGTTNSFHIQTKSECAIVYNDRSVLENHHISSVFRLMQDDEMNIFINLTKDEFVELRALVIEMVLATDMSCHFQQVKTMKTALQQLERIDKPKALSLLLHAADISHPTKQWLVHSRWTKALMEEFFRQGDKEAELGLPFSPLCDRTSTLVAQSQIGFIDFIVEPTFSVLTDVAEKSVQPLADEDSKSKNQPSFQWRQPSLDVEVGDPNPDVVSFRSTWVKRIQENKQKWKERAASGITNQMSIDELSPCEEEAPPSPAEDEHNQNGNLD

What was measured:
PDE1C = PDE1C (Homo sapiens (Human), UniProt Q14123); test: biochemical
Text: (§1) Table 1 lists the IC50 value for inhibition of PDE1 by the compounds of the invention. […] PDE1 assays are described in the Experimental Section.

PDE1A = PDE1A (Homo sapiens (Human), UniProt P54750); test: biochemical
Text: as §1

PDE1B = PDE1B (Homo sapiens (Human), UniProt Q01064); test: PDE1 inhibition assay (PDE1B); type: biochemical; conditions: 15 nM tritium labelled cAMP, 1 hr at room temperature, SPA beads
Text: as §1

[1] = 15 nM tritium labelled cAMP, 1 hr at room temperature, SPA beads

`CCOc1ncccc1-c1cc(NCc2ncn(C)n2)c2c(n1)c(C)nn2C(C)CC` (single isomer, unassigned) [Example 121, 5-(2-ethoxy-3-pyridyl)-3-methyl-1-[1-methylpropyl]-N-[(1-methyl-1,2,4-triazol-3-yl)methyl]pyrazolo[4,3-b]pyridin-7-amine] gave an IC50 (PDE1C) of 10 nM and an IC50 (PDE1A) of 4 nM.
Molecule `CCOc1ncccc1-c1cc(NCc2cnc(C)o2)c2c(n1)c(C)nn2C(C)CC` (single isomer, unassigned) [Example 133, 5-(2-ethoxy-3-pyridyl)-3-methyl-N-[(2-methyloxazol-5-yl)methyl]-1-[1-methylpropyl]pyrazolo[4,3-b]pyridin-7-amine] has an IC50 (PDE1C) of 23 nM.
In the case of `CCOc1ncccc1-c1cc(NCc2ccnc(OC)c2)c2c(n1)c(C)nn2C(C)CC` (single isomer, unassigned) [Example 126, 5-(2-ethoxy-3-pyridyl)-N-[(2-methoxy-4-pyridyl)methyl]-3-methyl-1-[1-methylpropyl]pyrazolo[4,3-b]pyridin-7-amine], the IC50 (PDE1B; PDE1B, IC50 (nM)) is reported as 0.51 nM.
`CCC1COC(=O)N1c1cc(NCc2cnn(C)c2)c2c(n1)c(C)nn2C(C)C` (stereo not drawn) [Example 156, 4-ethyl-3-[1-isopropyl-3-methyl-7-[(1-methylpyrazol-4-yl)methylamino]pyrazolo[4,3-b]pyridin-5-yl]oxazolidin-2-one] gave an IC50 (PDE1A; [1]) of 31 nM and an IC50 (PDE1B; read-out: PDE1B, IC50) of 31 nM.
`CCOc1ncccc1-c1cc(NCc2noc(C)n2)c2c(n1)c(C)nn2C(C)CC` (single isomer, unassigned) [Example 128, 5-(2-ethoxy-3-pyridyl)-3-methyl-N-[(5-methyl-1,2,4-oxadiazol-3-yl)methyl]-1-[1-methylpropyl]pyrazolo[4,3-b]pyridin-7-amine] was tested, and the IC50 (PDE1A) was 1.2 nM.
`Cc1nn(C(C)C)c2c(NCc3cnn(C)c3)cc(-c3cccnc3N(C)C)nc12` [Example 201, 5-[2-(dimethylamino)-3-pyridyl]-1-isopropyl-3-methyl-N-[(1-methylpyrazol-4-yl)methyl]pyrazolo[4,3-b]pyridin-7-amine] was tested, and the IC50 (PDE1C; [1]) was 2100 nM and the IC50 (PDE1A; [1]) was 2100 nM.
Work on `CCOc1ncccc1-c1cc(NCc2cnn(C)c2)c2c(cnn2C(C)CC)n1` (single isomer, unassigned) [Example 69, 5-(2-ethoxy-3-pyridyl)-1-[1-methylpropyl]-N-[(1-methylpyrazol-4-yl)methyl]pyrazolo[4,3-b]pyridin-7-amine] yielded an IC50 (PDE1C) of 40 nM.
Molecule `CCOc1ncccc1-c1cc(NCc2coc(C)n2)c2c(n1)c(C)nn2C(C)CC` (single isomer, unassigned) [Example 129, 5-(2-ethoxy-3-pyridyl)-3-methyl-N-[(2-methyloxazol-4-yl)methyl]-1-[1-methylpropyl]pyrazolo[4,3-b]pyridin-7-amine] has an IC50 (PDE1B; PDE1B, IC50 (nM)) of 1.2 nM.
`CCOc1ncccc1-c1cc(NCc2nnn(C)n2)c2c(n1)c(C)nn2C(C)CC` (single isomer, unassigned) [Example 127, 5-(2-ethoxy-3-pyridyl)-3-methyl-1-[1-methylpropyl]-N-[(2-methyltetrazol-5-yl)methyl]pyrazolo[4,3-b]pyridin-7-amine] showed an IC50 (PDE1C) of 5.1 nM.
Work on `CCOc1ncccc1-c1cc(NCc2ncn(C)n2)c2c(n1)c(C)nn2C(C)CC` (single isomer, unassigned) [Example 122, 5-(2-ethoxy-3-pyridyl)-3-methyl-1-[1-methylpropyl]-N-[(1-methyl-1,2,4-triazol-3-yl)methyl]pyrazolo[4,3-b]pyridin-7-amine] yielded an IC50 (PDE1C) of 3.5 nM and an IC50 (PDE1A) of 2.2 nM.
Molecule `CCOc1ncccc1-c1cc(NCc2cnn(C)c2)c2c(cnn2C(C)CC)n1` (single isomer, unassigned) [Example 70, 5-(2-ethoxy-3-pyridyl)-1-[1-methylpropyl]-N-[(1-methylpyrazol-4-yl)methyl]pyrazolo[4,3-b]pyridin-7-amine] has an IC50 (PDE1C) of 360 nM.

Where two headings read alike, the source gives them in different places.
